Reference: PubChem BioAssay AID1893 (NMMLSC, 2009)
Only a part is listed here, and it is no random draw. Active and inactive are the calls of the source. No stated cut-off is given here; in the data, active means percent response mostly above about 71% (no sharp cut-off); inactive means mostly below about 38%.

system: MEKK2 (MAP3K2) mutant PB1 domain binding MEK5, human; experiment: mutant MEKK2 PB1-MEK5 binding signal retest – biochemical, single concentration, multiplex bead flow cytometry, confirmation (AID 1893); details: Alexa488-MEK5 binding to MEKK2 mutant, at 10 µM, hits give high values;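 further: higher means compound restores mutant binding toward wildtype level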

SMILES | percent response
CCC1=CC2Cc3nc4ccc(Cl)cc4c(N)c3C(C1)C2 (configuration not stated) | inactive: 31%
CN(CCCl)Cc1cc(Cl)c(NC2=NCCN2)c(Cl)c1 | inactive: 10%
